The values that follow come from BindingDB's records for doi:10.7270/Q21G0K51 (University of Carthage, 2017).

Sequences of proteins named here, by UniProt entry; tags and fusion partners are left off.
UniProt Q9N1N9, whole entry: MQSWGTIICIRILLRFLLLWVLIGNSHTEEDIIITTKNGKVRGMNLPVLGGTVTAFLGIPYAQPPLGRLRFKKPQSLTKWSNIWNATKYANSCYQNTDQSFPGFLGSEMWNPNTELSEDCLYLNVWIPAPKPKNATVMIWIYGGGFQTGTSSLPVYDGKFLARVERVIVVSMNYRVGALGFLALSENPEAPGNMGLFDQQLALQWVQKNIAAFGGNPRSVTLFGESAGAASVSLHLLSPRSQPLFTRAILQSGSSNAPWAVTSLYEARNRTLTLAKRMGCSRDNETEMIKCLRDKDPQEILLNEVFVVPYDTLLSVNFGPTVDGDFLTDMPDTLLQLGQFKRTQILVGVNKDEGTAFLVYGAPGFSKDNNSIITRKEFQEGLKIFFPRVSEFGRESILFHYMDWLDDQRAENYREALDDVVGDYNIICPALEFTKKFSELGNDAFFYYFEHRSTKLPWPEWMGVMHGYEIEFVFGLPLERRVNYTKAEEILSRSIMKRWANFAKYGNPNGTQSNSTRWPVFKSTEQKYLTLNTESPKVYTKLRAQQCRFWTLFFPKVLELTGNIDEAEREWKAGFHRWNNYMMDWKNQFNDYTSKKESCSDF

As usually defined, the IC50 is the concentration that gives 50% inhibition.

Each structure is given as a SMILES string.

The experiment has as its target Carboxylic ester hydrolase (Equus caballus, UniProt Q9N1N9). As to the kind of experiment: Cholinesterase Activity Assay. As for the experimental part:
The eight synthesized dialkyl-3-cyanopropylphosphates (3a-h) were dissolved in0.01 M dimethyl sulphoxide and then diluted in demineralized water to 1 mM and 0.1 mM.

`CCN(C)C(=O)Oc1cccc([C@H](C)N(C)C)c1` [3-[(1S)-1-(dimethylamino)ethyl]phenyl N-ethyl-N-methylcarbamate] returned an IC50 of 32.5 µM.
